pIC50: −log10 of the molar value. Counter-ions that a name gives are not always drawn. Like-named read-outs stand apart in the source and are kept apart here.
Biological target: canine TRPM8 (Canis lupus familiaris, UniProt Q1A7N1)
Assay: In vitro canine TRPM8 functional assay (Ca2+-sensitive fluorescent dye, icilin activation)
Assay type: cell-based
Conditions: for pIC50: eight-point concentration-response
Description: The functional activity of representative compounds of the formula (I) of the present invention was quantified by measuring changes in intracellular calcium concentration using a Ca^2+-sensitive fluorescent dye. The changes in fluorescent signal were monitored by a fluorescence plate reader, either a FLIPR™ (Molecular Devices) or FDSS (Hamamatsu).
HEK293 cells stably expressing canine TRPM8 were routinely grown as monolayers in Dulbecco's minimum essential medium supplemented with 10% FBS, 2 mM L-glutamine, 100 units/mL penicillin, 100 ug/mL streptomycin and 400 μg/mL G418. Cells were maintained in 5% CO2 at 37° C. At 24 hr prior to assay, cells were seeded in black wall, clear-base poly-D-lysine coated 384-well plates (BD Biosciences, NJ, USA) at a density of 5,000 cells per well in culture medium and grown overnight in 5% CO2 at 37° C. On assay day, growth media was removed, and cells were loaded with Calcium 3 Dye (Molecular Devices) for 35 min at 37° C., under 5% CO2 and then incubated for 25 min at room temperature and atmosphere. Subsequently, cells were tested for agonist-induced increases in intracellular Ca^2+ levels using FLIPR™ or FDSS. Cells were treated with compounds of the formula (I) at varying concentrations and intracellular Ca^2+ was measured for 5 min prior to the addition of icilin to each well to achieve a final concentration that produces an approximately 80% maximal response.
Maximal fluorescence intensity (FI) achieved upon addition of icilin was exported from the FLIPR™ or FDSS software and further analyzed using GraphPad Prism 3.02 (Graph Pad Software Inc., CA, U.S.A.). Basal FI was subtracted prior to normalizing data to percent of maximal response. Curves were generated using the average of quadruplicate wells for each data point using nonlinear regression of either sigmoidal dose response or sigmoidal dose response (variable slope). Finally, the EC50 and IC50 values were calculated with the best-fit curve determined by GraphPad Prism

Amino acid sequences for entries named in this document (tags omitted). Residues count along the entry.
UniProt Q1A7N1, 1-1104: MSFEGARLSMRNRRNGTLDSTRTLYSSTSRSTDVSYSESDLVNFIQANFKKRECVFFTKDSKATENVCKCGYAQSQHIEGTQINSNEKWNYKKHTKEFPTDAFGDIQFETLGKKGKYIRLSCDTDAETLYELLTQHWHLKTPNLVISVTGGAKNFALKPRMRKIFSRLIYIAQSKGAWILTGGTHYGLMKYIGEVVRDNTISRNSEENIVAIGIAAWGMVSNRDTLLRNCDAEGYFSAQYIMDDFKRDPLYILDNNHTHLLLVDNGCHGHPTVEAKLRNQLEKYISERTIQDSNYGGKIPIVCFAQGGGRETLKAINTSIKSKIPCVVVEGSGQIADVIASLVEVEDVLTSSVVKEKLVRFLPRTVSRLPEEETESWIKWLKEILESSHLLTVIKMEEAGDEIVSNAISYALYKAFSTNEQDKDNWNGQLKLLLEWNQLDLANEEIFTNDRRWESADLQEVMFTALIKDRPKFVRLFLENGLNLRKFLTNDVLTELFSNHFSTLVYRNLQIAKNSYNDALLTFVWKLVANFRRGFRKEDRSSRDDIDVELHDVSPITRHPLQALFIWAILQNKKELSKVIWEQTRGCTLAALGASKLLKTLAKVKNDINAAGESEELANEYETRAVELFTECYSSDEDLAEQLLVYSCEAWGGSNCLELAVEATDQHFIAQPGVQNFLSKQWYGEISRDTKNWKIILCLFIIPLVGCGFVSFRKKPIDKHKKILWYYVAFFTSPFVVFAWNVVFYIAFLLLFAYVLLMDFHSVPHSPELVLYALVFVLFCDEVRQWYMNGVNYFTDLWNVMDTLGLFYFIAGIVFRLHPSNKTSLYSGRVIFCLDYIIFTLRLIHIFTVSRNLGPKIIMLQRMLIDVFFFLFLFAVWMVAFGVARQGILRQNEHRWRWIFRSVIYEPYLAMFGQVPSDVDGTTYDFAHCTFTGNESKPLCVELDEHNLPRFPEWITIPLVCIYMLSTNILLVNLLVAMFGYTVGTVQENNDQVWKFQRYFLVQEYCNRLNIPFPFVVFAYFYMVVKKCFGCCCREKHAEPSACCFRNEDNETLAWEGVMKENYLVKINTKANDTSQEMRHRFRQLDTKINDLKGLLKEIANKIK

[1] = HEK293, 0.2 μM compound, HEK293 cells stably expressing canine TRPM8, icilin-induced Ca2+ response, read-out: % Inh @ 0.2 μM
[2] = HEK293 cells stably expressing canine TRPM8, icilin-induced Ca2+ response
[3] = HEK293, read-out: % Inh @ 0.2 μM

Row | Compound | inhibition at 0.2 µM [1] [%] | pIC50 [2] | inhibition at 0.2 µM [3] [%]
1 | COc1nc(-c2ccccc2Cl)cc2nc(-c3cc(C(C)(C)C)c(Br)o3)[nH]c12 [Compound 101, 2-(5-Bromo-4-tert-butyl-furan-2-yl)-6-(2-chloro-phenyl)-4-methoxy-3H-imidazo[4,5-c]pyridine sodium salt] | 88 | 7.47 | 
2 | COc1nc(-c2ccccc2C(F)(F)F)cc2nc(-c3cc(C(C)(C)C)no3)[nH]c12 [Compound 8, 2-(3-tert-Butyl-isoxazol-5-yl)-4-methoxy-6-(2-trifluoromethyl-phenyl)-3H-imidazo[4,5-c]-pyridine sodium salt] |  | 8.22 | 99
3 | COc1nc(-c2ccccc2F)cc2nc(-c3c(Cl)c(C(C)(C)C)nn3C)[nH]c12 [Compound 77, 2-(5-tert-Butyl-4-chloro-2-methyl-2H-pyrazol-3-yl)-6-(2-fluorophenyl)-4-methoxy-3H-imidazo[4,5-c]pyridine sodium salt] | 102 | 7.70 | 
4 | COc1nc(-c2ccccc2Cl)cc2nc(-c3c(Cl)c(C(C)(C)CF)nn3C)[nH]c12 [Compound 97, 2-[4-Chloro-5-(2-fluoro-1,1-dimethyl-ethyl)-2-methyl-2H-pyrazol-3-yl]-6-(2-chloro-phenyl)-4-methoxy-3H-imidazo[4,5-c]pyridine sodium salt] | 101 | 8.31 | 
5 | COc1nc(-c2ccccc2Cl)cc2nc(-c3cc(C(C)(C)C)co3)[nH]c12 [Compound 99, 2-(4-tert-Butyl-furan-2-yl)-6-(2-chloro-phenyl)-4-methoxy-3H-imidazo[4,5-c]pyridine sodium salt] | 97 | 7.50 | 
6 | COc1nc(-c2c(Cl)cccc2Cl)cc2nc(-c3c(Cl)c(C(C)(C)C)nn3C)[nH]c12 [Compound 103, 2-(5-tert-Butyl-4-chloro-2-methyl-2H-pyrazol-3-yl)-6-(2,6-dichloro-phenyl)-4-methoxy-3H-imidazo[4,5-c]pyridine sodium salt] |  |  | 101
